Results reported in US20180338955A1, “METHODS FOR REGULATION AND TREATMENT OF GLIOMA CELL MIGRATION AND GLIOBLASTOMA” (priority 2015, published 2018).

By UniProt entry, the sequences of proteins in these tests, tags left out.
UniProt P06239, whole entry, species assumed: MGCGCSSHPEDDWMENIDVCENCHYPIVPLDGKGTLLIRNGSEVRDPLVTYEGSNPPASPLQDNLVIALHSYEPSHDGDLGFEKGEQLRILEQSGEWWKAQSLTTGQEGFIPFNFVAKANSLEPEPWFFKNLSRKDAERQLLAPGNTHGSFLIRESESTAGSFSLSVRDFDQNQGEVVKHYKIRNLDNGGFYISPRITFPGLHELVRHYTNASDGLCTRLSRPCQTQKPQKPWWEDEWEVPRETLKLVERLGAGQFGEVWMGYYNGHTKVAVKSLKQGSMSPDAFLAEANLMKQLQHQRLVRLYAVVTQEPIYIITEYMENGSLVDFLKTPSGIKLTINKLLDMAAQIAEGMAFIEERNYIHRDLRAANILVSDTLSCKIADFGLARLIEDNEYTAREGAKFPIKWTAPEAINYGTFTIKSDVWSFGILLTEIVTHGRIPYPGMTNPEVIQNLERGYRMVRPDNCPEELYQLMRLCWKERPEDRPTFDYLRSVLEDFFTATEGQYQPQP

Assays:
Lck = Lck (Homo sapiens, UniProt P06239); conditions: cited from earlier work
human GSCs = test: xCELLigence impedance assay of cell spreading/migration; type: cell-based; conditions: 500 nM, after 10 hours, versus DMSO
Experimental: The xCELLigence system was used to perform cell migration assays on the RTCA DP instrument. Electrical impedance due to cell migration is represented as cell index. GBM cells were seeded on fibronectin coated wells of the RTCA CIM-plate 16 (ACEA Biosciences) and allowed to attach and spread for 1 hour at room temperature. After 1 hour, wells were treated with DMSO vehicle or 500 nM Lck inhibitor. As cells migrated towards the lower chamber containing 10% FBS with DMSO vehicle or 500 nM Lck inhbitor, measurements were captured every 5 minutes. Cell index data was plotted overtime and the slope between 2 and 6 hours was calculated.

SMILES: COc1cc(-c2nn([C@H]3CC[C@H](N4CCN(C(C)=O)CC4)CC3)c3ncnc(N)c23)ccc1NC(=O)c1cc2ccccc2n1C [Lck-I, A770041]
- concentration at which the inhibitor specifically binds to the Lck active site (Lck): nanomolar concentrations
- cell index (human GSCs): significantly decreased
